Assay results published in paper PMC8834685 (International Journal of Molecular Sciences, 2022).

Target: T1, DmUCP4A (Drosophila melanogaster, UniProt Q9VX14)
T1 construct: gene Ucp4A
T1 sequence (Q9VX14 1-340): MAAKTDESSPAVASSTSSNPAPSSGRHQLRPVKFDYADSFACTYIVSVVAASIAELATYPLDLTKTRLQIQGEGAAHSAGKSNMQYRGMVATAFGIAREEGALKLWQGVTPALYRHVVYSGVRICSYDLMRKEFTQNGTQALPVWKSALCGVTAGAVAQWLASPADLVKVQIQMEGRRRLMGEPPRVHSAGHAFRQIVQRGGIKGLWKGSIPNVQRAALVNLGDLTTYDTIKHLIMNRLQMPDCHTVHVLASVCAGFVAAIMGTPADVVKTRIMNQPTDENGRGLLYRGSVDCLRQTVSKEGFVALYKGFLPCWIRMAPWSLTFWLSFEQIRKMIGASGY
Conditions: 0.3 mM external [14C]aspartate, 10 mM internal aspartate, pH 6.5, 25 °C, 1 min; thiol reagent added 2 min before substrate; covalent

**Q.** With COC([CH2][Hg+])CNC(=O)c1ccccc1OCC(=O)O (stereo not shown) [mersalyl] as the molecule, how does the “% inhibition at 10 μM” value read?
**A.** thiol reagents such as mersalyl, pCMBS, and pHMB were powerful inhibitors of DmUCP4A transport function
